# Antibody variant affinities, Ab-14 heavy chain, assay 1

Data: MIT Lincoln Laboratory AlphaSeq set, Engelhart et al. 2022, doi:10.1038/s41597-022-01779-4, as distributed in FLAb.

Target peptide (SARS-CoV-2 spike, HR2 region): PDVDLGDISGINAS

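In library AAYL49, one, two or three CDR residues were substituted; doubles and triples were drawn at random. The assay is AlphaSeq: two haploid yeast populations carry antibody and antigen on their surface. Mating (16 h, 30 °C) was followed by selection of diploids and sequencing of their barcodes. A regression on co-assayed BCL2-family reference pairs converts the normalised counts of each replicate to an apparent Kd. There are three technical replicates.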

Each scFv is VH, a 15-residue (Gly4Ser)3 linker, VL, as in the parent Ab-14, and differs from it in the CDRs of the heavy chain only.
VH: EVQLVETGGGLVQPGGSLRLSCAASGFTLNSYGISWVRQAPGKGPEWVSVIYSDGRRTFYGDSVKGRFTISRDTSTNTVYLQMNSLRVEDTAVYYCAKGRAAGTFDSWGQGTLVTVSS
VL: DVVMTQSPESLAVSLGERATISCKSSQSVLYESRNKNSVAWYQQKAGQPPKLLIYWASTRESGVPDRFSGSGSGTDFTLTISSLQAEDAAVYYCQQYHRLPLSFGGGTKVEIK

Substitutions are numbered in sequence along the VH above, starting at 1 (not Kabat). Affinities are written as log10 Kd with Kd in nM; a lower number is a better binder. The mean shown is taken over the replicates in which the pair was detected. Where no diploid with the target was found in that replicate, the entry reads "ND": below detection, most likely a poor binder, though not proof of it. Parent in this assay: reference entry 0.65, copy in this library 4.11 (one replicate of three). Background: pairings of library AAYL49 with three empty control strains gave a value in 15% of cases (median 4.06, 5th percentile 2.83). Values in that range, when seen in few replicates, are hard to tell from nonspecific mating. For each scFv, signals with the empty controls are counted beside the result.

Variant G26A/S35H/R57L showed ND, ND, ND (controls 0 of 9).
Variant G33F/F59Q/V64Y showed ND, 1.82, ND (controls 0 of 9).
Variant G26E/N30A/I34L showed 4.46, 4.70, 4.21 (mean 4.46; controls 2 of 9).
Variant S31Q/S53D/D62C showed ND, ND, ND (controls 1 of 9).
Variant Y32N/V64P/K65G showed ND, ND, ND (controls 0 of 9).
Variant S35P/G55E/F59Q showed ND, ND, ND (controls 2 of 9).
Variant S31N/G103S/T104C showed 1.36, 1.30, 1.42 (mean 1.36; controls 0 of 9).
Variant R56P/R57G/F59T showed ND, ND, ND (controls 0 of 9).
Variant T28P/T58I/Y60E showed 3.06, 3.72, 3.72 (mean 3.50; controls 1 of 9).
Variant F27A/G61Y showed ND, 2.41, ND (controls 0 of 9).
Variant S53T/G55C/T104Y showed ND, ND, ND (controls 0 of 9).
Variant G61L/A101W/A102D showed 1.61, 1.92, 2.67 (mean 2.07; controls 2 of 9).
Variant F27R/F59E/A101T showed 0.67, 0.85, 0.79 (mean 0.77; controls 1 of 9).
Variant I51F/T58N showed ND, 3.48, ND (controls 1 of 9).
Variant G26D/F27W showed 4.20, ND, ND (controls 0 of 9).
Variant S31C/T58L/F105C showed ND, ND, ND (controls 0 of 9).
Variant G99C/F105H showed ND, ND, ND (controls 0 of 9).
Variant T28S/V50D/F59Q showed ND, ND, ND (controls 2 of 9).
Variant F59Y/G61Y showed ND, ND, ND (controls 0 of 9).
Variant F27L/V50P/A102N showed 4.56, 5.69, 5.30 (mean 5.19; controls 3 of 9).
Variant S35R/G103K showed ND, ND, ND (controls 1 of 9).
Variant R57F/D62M/K65S showed ND, 3.36, ND (controls 4 of 9).
Variant G99W/F105D showed 1.50, 1.74, 1.32 (mean 1.52; controls 3 of 9).
Variant T28S/F59P/S107F showed ND, ND, ND (controls 1 of 9).
Variant T28M/G55M/A102D showed ND, ND, ND (controls 1 of 9).
Variant G55V/V64K/K65R showed ND, ND, ND (controls 0 of 9).
Variant G61D/D62W/S63E showed ND, 2.34, ND (controls 0 of 9).
Variant L29Q/R57D/S107N showed ND, ND, ND (controls 0 of 9).
Variant S31V/G33C/S53I showed ND, ND, 2.98 (controls 0 of 9).
Variant L29Y/G99F/D106S showed ND, ND, ND (controls 0 of 9).
Variant S31A/V50M/R100G showed ND, ND, ND (controls 1 of 9).
Variant S31C/Y52G/A102S showed ND, 3.01, ND (controls 4 of 9).
Variant S53A/D62V/K65F showed ND, 2.51, ND (controls 1 of 9).
Variant T28D/N30T/I51W showed ND, ND, ND (controls 0 of 9).
Variant N30T/I51M/V64K showed ND, ND, ND (controls 0 of 9).
Variant S35N/D54Y/F105E showed ND, ND, ND (controls 0 of 9).
Variant I34W/Y52A/D54T showed ND, ND, ND (controls 1 of 9).
Variant T28G/S31A/F105R showed 1.40, 1.31, 1.24 (mean 1.32; controls 5 of 9).
Variant L29R/Y60K/S107D showed ND, ND, ND (controls 1 of 9).
Variant G33W/Y60Q/S63I showed ND, ND, ND (controls 2 of 9).
Variant R57I/F59Q/F105A showed 5.02, 5.14, 3.25 (mean 4.47; controls 2 of 9).
Variant Y52L/S53D/F59T showed ND, ND, ND (controls 3 of 9).
Variant F27Y/T28Y/D62M showed ND, 3.30, 4.33 (mean 3.82; controls 2 of 9).
Variant K65P/A102H/T104W showed ND, ND, ND (controls 1 of 9).
Variant G26V/N30P/Y32G showed 1.86, 1.90, 2.07 (mean 1.94; controls 4 of 9).
Variant G33L/A101H/G103M showed ND, ND, 4.20 (controls 3 of 9).
Variant S53G/T58P/A102F showed 4.12, 3.35, 3.76 (mean 3.74; controls 3 of 9).
Variant R56D/G103F showed 1.34, 1.35, 1.51 (mean 1.40; controls 4 of 9).

Again, the first 6 entries without any signal:

changes	replicates, log10 nM	mean log10 Kd (nM)	control signals
G26A/S35H/R57L	ND, ND, ND	ND	0/9
S31Q/S53D/D62C	ND, ND, ND	ND	1/9
Y32N/V64P/K65G	ND, ND, ND	ND	0/9
S35P/G55E/F59Q	ND, ND, ND	ND	2/9
R56P/R57G/F59T	ND, ND, ND	ND	0/9
S53T/G55C/T104Y	ND, ND, ND	ND	0/9